Literature values, collected in article PMC8515052, “PepVAE: Variational Autoencoder Framework for Antimicrobial Peptide Generation and Activity Prediction” (Frontiers in Microbiology, 2021).

Tested on: E. coli NCIMB 11843
Design: method as in Norberg et al., 2011
Conditions: ref Norberg et al., 2011; cited from earlier work

For VLNENLLA [caseicin B-B1], the MIC is given as no less than 1250 µM.
